# Test results: PubChem BioAssay (Tox21)
# Protein sequences, listed by entry. Tags and fused reporters are not part of them.
# UniProt P37231, whole entry: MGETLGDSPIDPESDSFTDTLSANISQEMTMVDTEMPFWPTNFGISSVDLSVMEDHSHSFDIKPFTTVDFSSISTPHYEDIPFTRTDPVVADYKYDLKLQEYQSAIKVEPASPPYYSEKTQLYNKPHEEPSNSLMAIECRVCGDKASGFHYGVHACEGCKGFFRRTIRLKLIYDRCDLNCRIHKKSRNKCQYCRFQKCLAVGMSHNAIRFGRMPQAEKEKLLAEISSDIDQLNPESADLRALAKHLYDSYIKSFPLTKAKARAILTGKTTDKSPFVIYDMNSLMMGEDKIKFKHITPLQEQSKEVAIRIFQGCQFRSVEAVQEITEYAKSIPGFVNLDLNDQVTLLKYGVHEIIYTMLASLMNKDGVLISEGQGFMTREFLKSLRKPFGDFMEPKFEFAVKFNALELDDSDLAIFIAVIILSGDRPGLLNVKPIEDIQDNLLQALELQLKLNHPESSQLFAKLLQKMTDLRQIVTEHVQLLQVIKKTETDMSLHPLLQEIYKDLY
# This is a selection; strong and weak results do not stand in their true shares. Inconclusive results are not listed. Activity calls are given as the source filed them. Calls follow the shape of the full dose curve.
# Target: Peroxisome proliferator-activated receptor gamma (Homo sapiens) (UniProt P37231)
# Assay: qHTS assay to identify small molecule antagonists of the peroxisome proliferator-activated receptor gamma (PPARg) signaling pathway (AID 743191); also: nearly all actives have a fitted effect of over 30% in size
# Settings: HEK293H PPARg-UAS-bla, beta-lactamase ratio, antagonist, 17 h; series mostly up to 62.6 µM; ratio activity, negative = inhibition: at the top concentration
# Source text: U.S. Tox21 Program National Center for Advancing Translational Sciences [NCATS] NIH Chemical Genomics Center [NCGC] U.S. Environmental Protection Agency [EPA] National Institutes of Environmental Health Sciences [NIEHS] National Toxicology Program [NTP] U.S. Food and Drug Administration [FDA] Tox21 Assay Overview: The peroxisome proliferator-activated receptors (PPARs) are lipid-activated transcription factors of the nuclear receptor superfamily with three distinct subtypes namely PPAR alpha, PPAR delta (also called PPAR beta) and PPAR gamma (PPARg). All these subtypes heterodimerize with Retinoid X receptor (RXR) and these heterodimers regulate transcription of various genes. PPAR-gamma receptor (glitazone receptor) is involved in the regulation of glucose and lipid metabolism. To identify the compounds that inhibit PPAR-gamma signaling, GeneBLAzer PPAR gamma UAS-bla HEK293H cell line (Invitrogen, Carlsbad, CA, USA) containing a beta-lactamase reporter gene under control of an Upstream Activator Sequence (UAS) was used to screen the Tox21 compound library.
# Tox21 Assay Protocol Summary: PPARg-bla cells were dispensed at 3000 cells/6uL/well in 1536-well black wall/clear bottom plates using a Multidrop Combi (Thermo Fisher Scientific, Waltham, MA) dispenser. After the assay plates were incubated at 37C and 5% CO2 for 5 h, 23 nL of compounds dissolved in DMSO, positive controls or DMSO only was transferred to the assay plate by a Pintool station (Kalypsys, San Diego, CA). The assay plates were incubated at 37C for 17 h. After 1 uL of LiveBLAzerTM B/G FRET substrate was added using a Bioraptr Flying Reagent Dispenser (FRD) workstation (Beckman Coulter, Indianapolis, IN, USA), the plates were incubated at room temperature for 1 h, and fluorescence intensity was measured by an Envision plate reader (PerkinElmer, Shelton, CT).
# % is scaled to controls: 0 for no effect and ±100 for the full control effect; potency is read from the fitted curve at half-maximal effect.
Compound,"ratio activity, negative = inhibition",Potency
CCOC(=O)Cl,inactive: -12.2%,–
Cc1ccc([N+](=O)[O-])c([N+](=O)[O-])c1,–,active: 6.92 µM
O=[N+]([O-])OCC(CO[N+](=O)[O-])(CO[N+](=O)[O-])CO[N+](=O)[O-],inactive: -16.1%,–
COP(=S)(Cl)OC,inactive: 2.44% [at 81.1 µM],–
CCN(CC)CCCl,inactive: -7.86% [at 81.1 µM],–
COP(C)(=O)OC,–,inactive
C/C1=C2N=C(/C=C3N=C(/C(C)=C4\[N-][C@@](C)([C@@H]5N=C1[C@](C)(CCC(=O)NC[C@@H](C)OP(=O)([O-])O[C@H]1[C@@H](O)[C@@H](n6cnc7cc(C)c(C)cc76)O[C@@H]1CO)[C@H]5CC(N)=O)[C@@](C)(CC(N)=O)[C@@H]4CCC(N)=O)[C@@](C)(CC(N)=O)[C@@H]\3CCC(N)=O)C(C)(C)[C@@H]/2CCC(N)=O.[C-]#N.[Co+3],inactive: -7.08%,–
COc1ccc([N+](=O)[O-])cc1[N+](=O)[O-],inactive: 16.5%,–
CCOP(=O)(CC)OCC,inactive: 12.6%,–
[NH4+].[O-][Cl+3]([O-])([O-])[O-],–,inactive
